# miR-21 reporter: raises the signal of a miR-21 reporter. HeLa miR-21 FLuc reporter, luciferase, 48 h. 340,000 tested, under 10 active. Potency, µM (highest dose often 38.3 µM); active = well fitted rising curve with a large enough effect; inconclusive = small, poorly fitted or top-dose-only effect; inactive = no such curve, though single readings can be large or run the other way;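 note: miR-21 action dims this reporter so a rising signal means less miR-21 action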
#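 HeLa cells endogenously expressing miR-21, stably carrying CMV-driven firefly luciferase with a downstream miR-21 binding site, 2000 cells/well. Titrations up to approximately 40 uM, 48 hours; luciferase luminescence read.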
# Eya2 phos inh: inhibitors of human Eya2 phosphatase activity | O00167 | recombinant Eya2, OMFP fluorescence dephosphorylation (OMFP is methylfluorescein phosphate) | Potency, µM (doses to about 76.9 µM), most hits filed as inhibitors | 0.006% of 330,000 active | AID 488837
#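 Eya2 (0.2 uM) preincubated 10 min at ambient with compound, then OMFP substrate added at 50 uM; 10 min reaction in 50 mM HEPES pH 7.5, 50 mM NaCl, 5 uM MgCl2, 0.05% BSA, 1 mM DTT. Fluorescence read at Ex 485/Em 525 nm.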
# USP2a block: blocks human ubiquitin-specific protease USP2a | O75604 | AID 463254 | 0.01% of 330,000 active | USP2 core, Ub-CHOP2 coupled fluorogenic reporter, 485/531 | Potency, µM (doses to about 38.3 µM), hits mostly inhibitors
#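 USP2 core (10nM final) preincubated 30min RT with compound in 20mM Tris-HCl pH 8.0, 2mM CaCl2, 2mM beta-mercaptoethanol, 0.05% CHAPS; 25nM Ub-CHOP2 plus 25nM reporter substrate added, fluorescence (Ex485/Em531) read after 60min.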
# TSG101-PTAP inh: blocks PTAP/TSG101 interaction to inhibit HIV-1 budding | Q99816 | Fluorescence polarization, FITC-PTAP peptide / Tsg101 binding | Potency, µM (titrated, usually from 115 µM), hits mostly inhibitors | 340,000 tested, under 10 active; active = well fitted inhibition curve with a large enough effect in the main read-out, with a control signal flat, not every such curve was filed as active; inconclusive = small, poorly fitted or top-dose-only effect, or effect the other way, or a change in a side signal; inactive = no such curve, though single readings can be large or run the other way
#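 FP read-out: FITC-PTAP peptide, 50 nM final, binding Tsg101 binding domain, 10 uM final; 20 min, r.t.; 10 mM HEPES pH 7.5, 0.15 M NaCl, 0.01% Tween 20, 3 mM EDTA, 0.1 mM TCEP.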
# PTHR1 ag: agonists of human PTHR1 parathyroid hormone receptor | HEK293 GP2 PTHR1 cells, GloSensor cAMP luminescence, 1 h | Potency, µM (highest dose often 115 µM), usual class: activators | 0.075% of 410,000 active; also: nearly all actives have a fitted effect of over 55% in size
#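 HEK-293-derived GP2 cells expressing PTHR1 and a GloSensor cAMP reporter, 3,000/well, plated overnight, given luciferin plus IBMX (each 0.5 mM as added) for 1 h at 37 °C, then compound for 1 h at 37 °C. Luminescence was read after 15 min at room temperature.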
# GLS inhibitor: glutaminase GLS (human) inhibition; O94925; GLS enzymatic activity, qHTS titration; Potency, µM (doses to about 45.5 µM), actives largely listed as inhibitors; 0.21% of 410,000 active
#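 Coupled fluorescence readout: glutamate oxidase/HRP/Amplex Red detect glutamate formed by hKGA from L-glutamine (1 mM solution added). Buffer 45 mM KH2PO4 pH 8.2, 0.02% Tween-20; reads at t0 and 30 min RT.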
# A number is an active result; 0 = inactive; ? = inconclusive; - = not tested or not shown; ! = a repeat was not active. An excerpt weighted towards active compounds, which were near 0.24% of everything screened. Unless noted, calls follow the shape of the dose curve; as a rule, active = well fitted curve in the direction sought with a large enough effect; inconclusive = small, poorly fitted or top-dose-only effect, or another doubt; inactive = no such curve, though single readings can be large; an effect the other way counts as inactive or inconclusive.
SMILES,miR-21 reporter,Eya2 phos inh,USP2a block,TSG101-PTAP inh,PTHR1 ag,GLS inhibitor
Cc1cccc2c1-c1sc(C(=O)N(C)c3cccc(Cl)c3)cc1CO2,0,-,-,-,0,0
Cc1ccn2c(NC3CCCCC3)c(-c3ccc(SC4CCCCC4)cc3)nc2c1,-,-,-,-,0,0
Cc1ccn2c(NC3CCCC3)c(-c3ccsc3)nc2c1,0,0,0,0,0,7.1µM
COc1cc(/C=C/C(=O)/C=C(O)/C=C/c2ccc(O)c(OC)c2)ccc1O,-,0,0,?,0,35µM!
COc1ccc2c(c1)c1nc3ccccc3nc1n2CCn1c(=O)oc2ccccc21,0,0,0,?,0.4µM,0
O=c1oc2ccccc2n1CCn1c2ccccc2c2nc3ccccc3nc21,0,0,0,0,0,0
CCOc1cc(N2C(=O)CC3CS(=O)(=O)CC32)c(OCC)cc1NC(=O)c1ccccc1 (configuration not stated),0,0,0,0,0,22µM
CCOc1cc(N2CCOCC2)c(OCC)cc1NC(=O)c1cccc(N(C)C)c1,0,0,0,0,0,0
Cn1ncc(S(=O)(=O)Cc2ccccc2)c(Cl)c1=O,0,0,0,0,0,11µM
Cc1nn(-c2ccccc2)c(C)c1C1C(C#N)=C(N)Oc2n[nH]c(C)c21 (configuration not stated),0,0,0,0,0,20µM
COc1cc(N=c2c([N+](=O)[O-])nn(-c3ccc4c(c3)OCCO4)n2O)cc(OC)c1,0,0,0,0,0,0
CC(C)c1ccc(N=c2c([N+](=O)[O-])nn(-c3ccc4c(c3)OCCO4)n2O)cc1,0,0,0,0,0,11µM
CC(=O)O[C@]1(C(=O)CO)[C@@H](C)C[C@H]2[C@@H]3CCC4=CC(=O)C=C[C@]4(C)[C@@]3(F)[C@@H](O)C[C@]21C,-,-,-,-,-,0
CCOC(=O)c1ccccc1NC(=O)CCc1nc(-c2ccc(C)cc2)no1,0,-,-,-,0,0
COC(=O)c1ccccc1NC(=O)Cc1nc(-c2ccc(OC)cc2)no1,0,-,-,-,50µM,0
COc1ccc(NC(=O)Cn2c(=O)n(-c3cccc(C)c3)c(=O)c3c2c2cc(C)ccc2n3C)cc1Cl,0,-,-,-,0,0
COc1ccc(S(=O)(=O)Oc2ccc3ccccc3c2)cc1,0,0,0,0,0,0
COC1=C(OC)C(=O)C(Sc2ccc3ccccc3c2)=CC1=O,-,-,-,0,0,10µM
Cc1ccc(Cn2c(C(C)Nc3nc(-c4ccc(C)cc4)cs3)nc3cc(Cl)c(Cl)cc32)cc1 (configuration not stated),0,0,0,0,0,10µM
CCN(CC)CCC[C@H](C)Nc1c2ccc(Cl)cc2nc2ccc(OC)cc12,-,-,-,-,-,0
Oc1ccccc1C(Nc1nccs1)c1ccc2cccnc2c1O (configuration not stated),0,0,0,0,0,16µM
Oc1c(C(Nc2ccccn2)c2ccccn2)ccc2cccnc12 (configuration not stated),0,0,0,0,0,0
Cn1nc(C(=O)Nc2sc3c(c2C#N)CCCC3)ccc1=O,0,0,0,0,45µM,0
CC(=O)Nc1sc2c(c1C#N)CCCC2,0,-,-,0,0,0
CCOc1ccccc1NC(=O)Cn1c(=O)n(Cc2ccco2)c(=O)c2ccc(C(=O)NC3CCCC3)cc21,0,-,-,-,0,0
O=[N+]([O-])c1ccc(Sc2cccc[n+]2[O-])c2nonc12,?,0,0,?,0,11µM
Cc1ccc(C)c(S(=O)(=O)c2c(C)cc(C)nc2Cl)c1,0,0,0,0,0,0
Cc1ccc(S(=O)(=O)c2c(C)cc(C)nc2Cl)cc1,0,0,0,0,0,11µM
Cc1ccc(S(=O)(=O)c2c(C)cc(C)nc2Cl)c(C)c1,0,0,0,0,0,13µM
Cc1cc(C)c(S(=O)(=O)c2ccccc2C)c(Cl)n1,0,0,0,-,0,13µM
